Source: ChEMBL document CHEMBL1135432, “Structural classification of protein kinases using 3D molecular interaction field analysis of their ligand binding sites: target family landscapes” (J Med Chem, 2002)

Sequences of proteins named here, by UniProt entry; tags and fusion partners are left off. A change or cut given only in a name is not applied to a line headed by its entry.
UniProt P11802: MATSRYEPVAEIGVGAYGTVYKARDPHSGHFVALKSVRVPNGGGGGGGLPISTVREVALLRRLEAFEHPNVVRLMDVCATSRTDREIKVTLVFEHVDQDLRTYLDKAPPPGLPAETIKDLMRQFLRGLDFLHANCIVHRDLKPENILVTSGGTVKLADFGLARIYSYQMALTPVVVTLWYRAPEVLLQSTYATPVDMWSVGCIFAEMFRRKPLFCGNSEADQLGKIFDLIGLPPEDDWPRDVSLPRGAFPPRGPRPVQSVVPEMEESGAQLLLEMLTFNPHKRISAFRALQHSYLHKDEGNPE

Molecular target: Cyclin-dependent kinase 4/cyclin D1 (Homo sapiens, UniProt P11802)
Assay: Inhibition of Cyclin D1-cyclin-dependent kinase 4
Format: protein-complex assay

IC50: > 1000 µM
SMILES: Cn1cnc2c(NCc3ccccc3)nc(NCCO)nc21 [OLOMOUCINE]
